Experimental data published in PMC5734940 (Toxicology and applied pharmacology, 2017).

System: Human iPSC-derived cardiomyocytes (iCell cardiomyocytes)

Phenol, isopropylated, phosphate (3:1)
Effect on mitochondria / mitochondria potential (in words): selectively decreased mitochondria potential
